Measured values: PubChem BioAssay AID1865 (National Center for Advancing Translational Sciences (NCATS), 2009)
Several values for one entry are separate records, joined by “and”; a condition that tells them apart may be missing. Identical values can stand only once. The list shows a part of the results, in another mix than the full data. Activity calls are given as the source filed them. Calls follow the shape of the dose curve; as a rule, active = well fitted activation curve with a large enough effect; inconclusive = small, poorly fitted or top-dose-only effect; inactive = flat fitted curve, though single readings scatter.

Assay: Quantitative High-Throughput Screen for Regulators of Epigenetic Control; also: % of control where 0% means no effect; nearly all actives have a fitted effect of over 60% in size
Settings: murine LDR cells, GFP reporter derepression, 30 h; at 53.9 µM (top of the series) unless noted
Text: NIH Molecular Libraries Screening Centers Network [MLPCN] NIH Chemical Genomics Center [NCGC] MLSCN Grant: 1 X01 MH079860-01 Assay Provider: Elisabeth D. Martinez, University of Texas SW Medical Center NCGC Assay Overview: The Locus Derepression (LDR) assay detects the derepression or induction of a GFP reporter that is stably integrated in a genomic region of murine cells that is presumably silenced. Transcription of the GFP reporter is controlled by a CMV promoter, which normally is constitutively active. However, this cell line, termed LDR, was selected for lack of constitutive production of GFP. GFP production can be induced by incubating the cells with histone deacetylase or DNA methyltransferase inhibitors (Martinez et al., 2006). Compounds that derepress or induce this reporter locus are identified by enumerating GFP positive cells using a laser-scanning microplate cytometer (Auld et al., 2006). This assay was screened against the MLSMR earlier (AID 597; (Johnson et al., 2008) and has been rescreened here against the expanded collection.
NCGC Assay Protocol Summary: Three hundred LDR cells in 5 uL per well were dispensed into black, clear-bottom 1536-well plates. Twenty-three nL compound was transferred to the assay plate and cells were incubated 30 hours at 37 C. Medium was removed, cells were washed two times with PBS, and GFP-positive cells were enumerated as fluorescent objects between the sizes of 20 to 120 um width and depth using an Acumen Explorer. References Auld, DS, Johnson, RL, Zhang, YQ, Veith, H, Jadhav, A, Yasgar, A, Simeonov, A, Zheng, W, Martinez, ED, Westwick, JK, Austin, CP, Inglese, J (2006). Fluorescent protein-based cellular assays analyzed by laser-scanning microplate cytometry in 1536-well plate format. Methods Enzymol 414: 566-89. Johnson, RL, Huang, W, Jadhav, A, Austin, CP, Inglese, J, Martinez, ED (2008). A quantitative high-throughput screen identifies potential epigenetic modulators of gene expression. Anal Biochem 375: 237-48. Martinez, ED, Dull, AB, Beutler, JA, Hager, GL (2006). High-content fluorescence-based screening for epigenetic modulators. Methods Enzymol 414: 21-36.

Structure (SMILES)	GFP activation
Nc1cccc2ccc([As](=O)(O)O)cc12	inactive: -0.222%
CCN(N=Nc1nonc1N)c1nonc1N	inactive: 0%
O=P(Nc1nc2ccc(Cl)cc2s1)(c1ccccc1)c1ccccc1	inactive: 0%
CC(=O)Nc1ccc([As](=O)(O)O)cc1	inactive: -1.08%
O=C(O)c1ccccc1[As](=O)(O)O	inactive: -3.23%
Cc1ccc(NP(=O)(Oc2ccccc2F)Oc2ccccc2F)nc1	inactive: 0%
CN(C(=O)Cc1ccc(Cl)c(Cl)c1)[C@H]1CCCC[C@@H]1N1CCCC1	inactive: 0.833% [middle of 8 runs]
Cc1cc(SC(NC(=O)c2ccc(F)cc2)C(Cl)(Cl)Cl)ncn1 (centres undefined)	inactive: -0.99%
CCOP(=O)(Nc1ccccc1)OCC	inactive: -8.96% and inactive: -0.259%
O=C(NC(Sc1ccncn1)C(Cl)(Cl)Cl)c1ccccc1 (centres undefined)	inactive: -3.17%
Cc1c2non([O-])c-2c(C)[n+](=O)[n+]1[O-]	inactive: 12.8%
Oc1ccccc1CNc1ccccn1	inactive: -4.15%
Nc1cc(N)c2nonc2c1[N+](=O)[O-]	inactive: 0.311%
CC(C)CC(=O)NC(Sc1ccc(Cl)cc1)C(Cl)(Cl)Cl (centres undefined)	inactive: -0.508%
Cc1ccc(N/C(=N/P(=O)(N2CCOCC2)N2CCOCC2)N2CCOCC2)cc1	inactive: -0.233%
NC(=O)c1cc([N+](=O)[O-])cc([N+](=O)[O-])c1N	inactive: 3.97%
CN1CCCC(OC(=O)C(c2ccccc2)c2ccccc2)C1 (centres undefined)	inactive: 0.192%
Clc1ccc(Cl)c(NC2=NCC(CBr)S2)c1 (centres undefined)	inactive: 1.06%
Cc1ccc(OP(=O)(Nc2nccs2)Oc2ccc(C)cc2)cc1	inactive: 1.87%
COc1ccccc1OP(=O)(Nc1ccc(C)cn1)Oc1ccccc1OC	inactive: 2.36%
CCN(/C(=N/P(=O)(N1CCOCC1)N1CCOCC1)N1CCOCC1)c1ccc(OC)cc1	inactive: 2.56%
C[N+]1=C2C=CC=CC=C2SC12C([N+](=O)[O-])=CC([N+](=O)[O-])=C[C-]2[N+](=O)[O-] (centres undefined)	inactive: -1.08%

Structure (SMILES)	GFP activation
Nc1ccc([As](=O)(O)c2ccc(N)cc2)cc1	inactive: 3.25%
CC1CCN(C(=O)Oc2c(Cl)cc(Cl)c3cccnc23)CC1	inactive: 2.83%
CC(=O)C1=CCCC2CCC1N2 (centres undefined)	inactive: -1.89% and inactive: 0%
CN(C)C(=O)OCCc1n(C)cc[n+]1C	inactive: -1.49%
CC(C)=N/N=C(\N)N[N+](=O)[O-]	inactive: -6.35%
COc1ccc(C2=NCC(CBr)S2)cc1 (centres undefined)	inactive: 0.508%
CCc1nc2c(n1)c1c(non1O)c1c2no[n+]1[O-]	inactive: -2.12%
O=[N+]([O-])c1cc([N+](=O)[O-])c(CCNc2ccccc2)c([N+](=O)[O-])c1	inactive: 0.244%
Cc1ccc(NP(=O)(Oc2ccccc2)Oc2ccccc2)nc1	inactive: 2.25%
O=[N+]([O-])c1cccc2n[nH]nc12	inactive: -0.567%
CC(=O)N1C2C3N(C(C)=O)C1C1N(C(C)=O)C(C(N1C(C)=O)N3C(C)=O)N2C(C)=O	inactive: 2.11%
O=[N+]([O-])c1ncn(CCn2ncnc2[N+](=O)[O-])n1	inactive: 5.62%
CC(C)(C)C(=O)NC(Sc1ccncn1)C(Cl)(Cl)Cl (centres undefined)	inactive: -3.06%
O=C(O)CNc1ccc([As](=O)(O)O)cc1	inactive: -0.281%
O=[N+]([O-])c1cccc(NC2=NCC(CBr)S2)c1 (centres undefined)	inactive: 0%
O=C(Nc1cc([As](=O)(O)O)ccc1O)c1ccccc1	inactive: 0.433%
O=[As](O)(c1ccccc1)c1ccc(O)cc1	inactive: 1.08%
O=[N+]([O-])c1ncn(CCn2cnc([N+](=O)[O-])n2)n1	inactive: 0%
CC(=O)NC(SC(=S)N(C)C)C(Cl)(Cl)Cl (centres undefined)	inactive: -0.216%
O=C(OC1CN2CCC1CC2)c1cccc(Cl)c1 (centres undefined)	inactive: -1.83%
C(Cc1nn[nH]n1)Cc1nn[nH]n1	inactive: -5.27%
Nc1ccc([As](=O)(O)c2ccc([N+](=O)[O-])cc2)cc1	inactive: 5.44%

Structure (SMILES)	GFP activation
O=P(Nc1ccccn1)(c1ccc(Br)cc1)c1ccc(Br)cc1	inactive: -0.229%
CN(C(=O)Cc1ccccc1)[C@H]1CC[C@@]2(CCCO2)C[C@@H]1N1CCCC1	inactive: 0%
C[C@H]1OP(=O)(Oc2ccccc2)[C@H](O)[C@H](O)[C@H]1N=[N+]=[N-] (some centres undefined)	inactive: 0.99%
O=P(Nc1nc2ccccc2s1)(c1ccccc1)c1ccccc1	inactive: -0.281%
CC(C)C(=O)NC(Sc1ccccc1)C(Cl)(Cl)Cl (centres undefined)	inactive: -1.04%
O=P(Nc1nccs1)(c1ccccc1)c1ccccc1	inactive: -1.14%
c1nnnn1CCn1cnnn1	inactive: 0%
C[C@H]1OP(=O)(Oc2ccccc2)C[C@@H]2O[C@@H]21 (some centres undefined)	inactive: 6.12%
C[C@@H]1C=CCP(=O)(Oc2ccccc2)O1 (some centres undefined)	inactive: 0%
CC(=O)Nc1ccc(Oc2c([N+](=O)[O-])cc([N+](=O)[O-])cc2[N+](=O)[O-])cc1	inactive: 0.234%
CC(=O)Nc1ccc([As](=O)(O)O)c(O)c1	inactive: 0%
CCOc1ccc(C2=NCC(CBr)S2)cc1 (centres undefined)	inactive: 0%
O=P1(Nc2nc3ccc(Cl)cc3s2)COc2ccccc2O1 (centres undefined)	inactive: -0.952%
CC(C)(C)C(=O)NC(Sc1ccccc1)C(Cl)(Cl)Cl (centres undefined)	inactive: -2.82%
CCC(=O)N1C2C3N(C(=O)CC)C1C1N(C(=O)CC)C(C(N1C(=O)CC)N3C(=O)CC)N2C(=O)CC	inactive: 0.758%
CN(C(=O)Cc1ccc(Cl)c(Cl)c1)[C@@H]1CCCC[C@@H]1N1CCCC1	inactive: -0.144%
Cc1ccc(OP(=O)(Nc2ccccn2)Oc2ccc(C)cc2)cc1	inactive: 2.99%
CC(=O)NC(SC(=S)N(CC(C)C)CC(C)C)C(Cl)(Cl)Cl (centres undefined)	inactive: 0.102%
COC(=O)c1cc2c(s1)N=C(c1ccccc1)N(C)P2(=O)N1CCOCC1 (centres undefined)	inactive: -1.06%
O=c1c2cc([N+](=O)[O-])ccc2[nH]c2c([N+](=O)[O-])cc([N+](=O)[O-])cc12	inactive: -7.45%
